Laboratory results: US8242166B2, “C(10) ethyl ester and C(10) cyclopropyl ester substituted taxanes” (Florida State University Research Foundation, Inc., priority 2008, dated 2012)

Legend:
Sprague-Dawley rats [1] = experiment: Rat toxicity study e371 single dose; conditions: ethanol, Cremophor EL and D5W (10:10:80)
Sprague-Dawley rats [2] = experiment: Rat toxicity study e371 multiple dose; conditions: weekly, ethanol, Cremophor EL and D5W (10:10:80)
[3] = test system: human MSTO-211H mesothelioma xenograft; experiment: MSTO-211H xenograft study 091 (Example 31); format: in vivo; conditions: 30 mg/kg IV Q4D × 4
[4] = test system: human HT29 colon carcinoma xenografts; experiment: HT29 xenograft study e138 (Example 22); conditions: 30 mg/kg IV Q4D × 4

| SMILES | axonal degeneration vs docetaxel (Sprague-Dawley rats [1]) | rat toxicity score vs docetaxel (Sprague-Dawley rats [1]) | axonal degeneration vs docetaxel (Sprague-Dawley rats [2]) | toxicity [3] | Max. BW Loss %; Day [4] | Number of Death NTR ([4]; N=6) | Number of Death TR ([4]; N=6) |
| --- | --- | --- | --- | --- | --- | --- | --- |
| CC(=O)O[C@@]12CO[C@@H]1C[C@H](O)[C@@]1(C)C(=O)[C@H](OC(=O)C3CC3)C3=C(C)[C@@H](OC(=O)[C@H](O)[C@@H](NC(=O)OC4CCC4)c4cccs4)C[C@@](O)([C@@H](OC(=O)c4ccccc4)C12)C3(C)C (stereo partly drawn) [Compound 18365] | less axonal degeneration than docetaxel | higher (safer) rat toxicity score | less axonal degeneration than docetaxel |  |  |  |  |
| CCC(=O)O[C@H]1C(=O)[C@@]2(C)C([C@H](OC(=O)c3ccccc3)[C@]3(O)C[C@H](OC(=O)[C@H](O)[C@@H](NC(=O)OC4CCCC4)c4cccs4)C(C)=C1C3(C)C)[C@]1(OC(C)=O)CO[C@@H]1C[C@@H]2O (stereo partly drawn) [Compound 18926] | less axonal degeneration than docetaxel | higher (safer) rat toxicity score | less axonal degeneration than docetaxel | toxic at this dose |  |  |  |
| CCC(=O)O[C@H]1C(=O)[C@@]2(C)C([C@H](OC(=O)c3ccccc3)[C@]3(O)C[C@H](OC(=O)[C@H](O)[C@@H](NC(=O)OC4CCC4)c4cccs4)C(C)=C1C3(C)C)[C@]1(OC(C)=O)CO[C@@H]1C[C@@H]2O (stereo partly drawn) [Compound 19244] | less axonal degeneration than docetaxel | higher (safer) rat toxicity score |  |  | −10.5%; Day 14 | 0 | 0 |
